{"source": "patent US4162311A", "about": "“Medicinal preparation with pronounced vegetotropic and antiepileptic effect for treating psychoneurotic disorders” (priority 1977, dated 1979)", "tested_on": "hippocamp and amygdaloid nuclei", "assay": "electrical activity of brain structures, implanted electrodes", "assay_type": "in vivo", "conditions": "rabbits, 100 to 200 mg/kg", "description": "The localization of brain structures that are the most sensitive to hydrazide of diphenylphosphinylacetic acid was studied on rabbits having electrodes permanently implanted in different parts of the cerebral cortex and subcortical formations."}
{"smiles": "NNC(=O)CP(=O)(c1ccccc1)c1ccccc1", "note": "[Hydrazide of diphenylphosphinylacetic acid]", "values": [{"measurement": "electrical activity in hippocamp and amygdaloid nuclei", "value": "reduces the electrical activity"}]}
